# Measured values: PubChem BioAssay AID588453 (National Center for Advancing Translational Sciences (NCATS), 2011)
# Chains of the proteins cited; added tags and fusions are not shown.
# UniProt O89049, whole entry, looked up: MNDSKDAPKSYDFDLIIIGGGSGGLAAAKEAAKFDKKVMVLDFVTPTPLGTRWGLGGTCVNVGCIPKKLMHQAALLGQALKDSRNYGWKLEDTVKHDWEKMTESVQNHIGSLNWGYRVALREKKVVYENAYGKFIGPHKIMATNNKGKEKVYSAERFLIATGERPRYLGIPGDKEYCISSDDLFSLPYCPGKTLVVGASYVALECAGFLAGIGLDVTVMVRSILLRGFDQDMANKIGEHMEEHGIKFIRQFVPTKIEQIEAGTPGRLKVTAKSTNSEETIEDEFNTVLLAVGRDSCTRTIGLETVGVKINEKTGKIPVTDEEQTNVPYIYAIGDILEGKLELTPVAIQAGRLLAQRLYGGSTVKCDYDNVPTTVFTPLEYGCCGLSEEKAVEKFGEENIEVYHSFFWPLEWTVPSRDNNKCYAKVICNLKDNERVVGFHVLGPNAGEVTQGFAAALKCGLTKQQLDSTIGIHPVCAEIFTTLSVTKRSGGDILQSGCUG
# Only a part is listed here, and it is no random draw. Records with an inconclusive call do not appear. Entries that show only a call come without a potency. The source made the active and inactive calls. Calls come from the whole dose curve; as a rule, active = well fitted inhibition curve with a large enough effect; inconclusive = small, poorly fitted or top-dose-only effect; inactive = no such curve, though single readings can be large or run the other way.
# Molecular target: Thioredoxin reductase 1, cytoplasmic (Rattus norvegicus) (UniProt O89049)
# Experiment: qHTS Assay for Inhibitors of Mammalian Selenoprotein Thioredoxin Reductase 1 (TrxR1): qHTS; note: nearly all actives have a fitted effect of over 65% in size
# Conditions: recombinant rTrxR1, NADPH fluorescence consumption, selenite substrate; series mostly up to 114 µM
# Potency is the fitted concentration of half-maximal effect.
Structure (SMILES),"activity change, negative = inhibition",Potency
c1nnnn1CCn1cnnn1,inactive,
O=[N+]([O-])c1ccc(O)c(/C=N/Nc2ccc([N+](=O)[O-])cc2[N+](=O)[O-])c1,inactive,
CC(=O)NC(SC(=S)N(C)C)C(Cl)(Cl)Cl (centres undefined),,active: 20 µM
O=[N+]([O-])c1ncn(CCn2cnc([N+](=O)[O-])n2)n1,inactive,
O=[As](O)(c1ccccc1)c1ccc(O)cc1,inactive,
C(Cc1nn[nH]n1)Cc1nn[nH]n1,inactive,
Nc1ccc([As](=O)(O)c2ccc([N+](=O)[O-])cc2)cc1,inactive,
O=C(OC1CN2CCC1CC2)c1cccc(Cl)c1 (centres undefined),inactive,
COc1ccc(N)c([N+](=O)[O-])c1[N+](=O)[O-],inactive,
O=P(Nc1ccccn1)(c1ccc(Br)cc1)c1ccc(Br)cc1,inactive,
CN(C)C1(CNC(=O)c2ccc(Cl)c(S(N)(=O)=O)c2)CCCCC1,inactive,
O=P(Nc1nc2ccccc2s1)(c1ccccc1)c1ccccc1,inactive,
C[C@H]1OP(=O)(Oc2ccccc2)[C@H](O)[C@H](O)[C@H]1N=[N+]=[N-] (some centres undefined),inactive,
COC(=O)c1cc2c(s1)N=C(c1ccccc1)N(C)P2(=O)N1CCOCC1 (centres undefined),inactive,
CC(=O)NC(SC(=S)N(CC(C)C)CC(C)C)C(Cl)(Cl)Cl (centres undefined),inactive,
Cc1ccc(OP(=O)(Nc2ccccn2)Oc2ccc(C)cc2)cc1,inactive,
O=C(OC1CN2CCC1CC2)c1ccccc1 (centres undefined),inactive,
CCC(=O)N1C2C3N(C(=O)CC)C1C1N(C(=O)CC)C(C(N1C(=O)CC)N3C(=O)CC)N2C(=O)CC,inactive,
CC(NC(=O)COC(=O)C(O)(c1ccccc1)c1ccccc1)c1ccccc1 (centres undefined),inactive,
Cc1ccccc1OP(=O)(Nc1ccccn1)Oc1ccccc1C,inactive,

Structure (SMILES),"activity change, negative = inhibition",Potency
O=c1c2cc([N+](=O)[O-])ccc2[nH]c2c([N+](=O)[O-])cc([N+](=O)[O-])cc12,,active: 3.16 µM
CN(C)C(=O)Oc1noc2ccccc12,inactive,
CCNC(=S)/N=C(\N)N[N+](=O)[O-],inactive,
O=C(NC1CCS(=O)(=O)C1)NP(=S)(Oc1ccccc1)Oc1ccccc1 (centres undefined),inactive,
c1ccc(-c2nn[nH]n2)c(-c2nn[nH]n2)c1,inactive,
Cc1ccc(NP(=O)(Oc2cccc(C)c2)Oc2cccc(C)c2)nc1,inactive,
O=[N+]([O-])c1cc([N+](=O)[O-])c2nc[nH]c2c1,inactive,
O=P1(N(CCCl)CCCl)OCCC2CCCCN21 (centres undefined),inactive: 17.2% [at 2.29 µM],
CC(=O)c1ccc(N2CC2c2ccncc2)cc1 (centres undefined),inactive,
N#C/C(=C\c1ccc(N(CCBr)CCBr)cc1)C(N)=O,inactive: -20.1% [at 11.4 µM],
COC(=O)C1(C)COP(=O)(NCc2ccccc2)OC1 (centres undefined),inactive: 5.24% [at 11.4 µM],
Cc1ccccc1CN(C)C(=O)COC(=O)C(O)(c1ccccc1)c1ccccc1,inactive,
C[C@H]1OP(=O)(Oc2ccccc2)C[C@@H]2O[C@@H]21 (some centres undefined),inactive,
C[C@@H]1C=CCP(=O)(Oc2ccccc2)O1 (some centres undefined),inactive,
CC(=O)Nc1ccc([As](=O)(O)O)c(O)c1,inactive,
O=P1(Nc2nc3ccc(Cl)cc3s2)COc2ccccc2O1 (centres undefined),inactive,
CCOc1ccc(C2=NCC(CBr)S2)cc1 (centres undefined),inactive,
CCc1cc(O)c([N+](=O)[O-])c(C)c1[N+](=O)[O-],inactive,
CC(C)(C)C(=O)NC(Sc1ccccc1)C(Cl)(Cl)Cl (centres undefined),inactive,
